SMILES strings stand for the structures. Like-named read-outs stand apart in the source and are kept apart here.

By UniProt entry, the sequences of proteins in these tests, tags left out. Residues count along the entry.
UniProt P56817, 75-416: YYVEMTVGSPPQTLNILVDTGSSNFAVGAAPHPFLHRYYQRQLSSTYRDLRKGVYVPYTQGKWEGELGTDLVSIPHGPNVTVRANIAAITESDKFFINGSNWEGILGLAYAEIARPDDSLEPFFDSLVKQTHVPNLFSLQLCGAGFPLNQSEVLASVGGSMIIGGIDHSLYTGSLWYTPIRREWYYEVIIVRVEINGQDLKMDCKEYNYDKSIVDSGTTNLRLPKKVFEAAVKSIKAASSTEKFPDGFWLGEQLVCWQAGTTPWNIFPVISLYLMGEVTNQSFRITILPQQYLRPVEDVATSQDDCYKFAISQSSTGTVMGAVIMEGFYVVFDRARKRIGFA
UniProt P56817, 46-501: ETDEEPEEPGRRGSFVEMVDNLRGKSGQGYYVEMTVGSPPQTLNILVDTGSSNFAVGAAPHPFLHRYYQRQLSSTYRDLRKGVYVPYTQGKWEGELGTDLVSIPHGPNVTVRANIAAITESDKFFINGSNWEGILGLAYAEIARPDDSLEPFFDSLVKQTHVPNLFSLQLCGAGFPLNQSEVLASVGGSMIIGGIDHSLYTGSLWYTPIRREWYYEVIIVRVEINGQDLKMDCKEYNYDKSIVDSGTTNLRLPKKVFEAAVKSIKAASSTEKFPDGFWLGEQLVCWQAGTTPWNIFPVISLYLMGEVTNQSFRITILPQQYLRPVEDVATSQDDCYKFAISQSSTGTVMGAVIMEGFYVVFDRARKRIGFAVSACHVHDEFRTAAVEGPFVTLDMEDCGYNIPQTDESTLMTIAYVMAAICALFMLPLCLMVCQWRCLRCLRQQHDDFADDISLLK

The target in experiment [1] is T1, BACE1 (Homo sapiens (Human), UniProt P56817). Briefly: Measurement of BACE1 inhibition by fluorescence resonance energy transfer (FRET), MCA substrate. As to conditions: for IC50: read-out: Test Example 1 IC50; for Ki: read-out: Test Example 1 BACE1 MCA Ki.
Experiment [2] deals with T1, BACE1. The experiment is described as follows: Measurement of Aβ production inhibition in cell (SK-N-BE(2) neuroblastoma cells, Aβ40 ELISA). Conditions: Test Example 3 IC50, Aβ40 production, SK-N-BE(2) cells, 6 hours.
Experiment [3] addresses T1, BACE1. Briefly: Measurement of BACE1 inhibition by time resolved fluorescence resonance energy transfer (TR-FRET). The format is biochemical. Conditions: Eu-CEVNLDAEFK-QSY 7 substrate, read-out: Test Example 2 IC50.
Where [4] appears, read: FRET, MCA-SEVNLDAEFK(DNP)-NH2 substrate, pH 4.4.

As to `C[C@@H]1Oc2ccc(Br)cc2[C@@]2(COC(N)=N2)C12COC2` (racemic) [RP 7b], the IC50 at BACE1 [1] (setting [4]) was found to be 39700 nM.

Take `C[C@@H]1Oc2ccc(-c3cccnc3F)cc2[C@@]2(COC(N)=N2)C12COC2` (racemic) [RP 79]: the concentration for half-maximal inhibition (IC50) against BACE1 [2] was found to be 450 nM; on BACE1 [1] (setting [4]), 1690 nM.

Take `CC1(C)Oc2ccc(NC(=O)c3ccc(Cl)cn3)cc2C2(COC(N)=N2)C12COC2` (stereo not drawn) [Example 27, N-(2-amino-2′,2′-dimethyldispiro[1,3-oxazole-4,4′-chromene-3′,3″-oxetan]-6′-yl)-5-chloropyridine-2-carboxamide]: the half-maximal inhibitory concentration (IC50) is 9.4 nM against BACE1 [2] and 82.2 nM on BACE1 [1]. The Ki at BACE1 [1] came to 38.2 nM.

Regarding `CC1(C)Oc2ccc(NC(=O)c3ccc(Cl)cn3)cc2[C@@]2(COC(N)=N2)C12COC2` [Example 218, N-[(4S)-2-amino-2′,2′-dimethyldispiro[1,3-oxazole-4,4′-chromene-3′,3″-oxetan]-6′-yl]-5-chloropyridine-2-carboxamide], the midpoint of inhibition on BACE1 [2], the IC50, lay at 0.78 nM.

As for `CC1(C)Oc2ccc(NC(=O)c3ccc(Br)cn3)cc2[C@@]2(COC(N)=N2)C12COC2` [Example 219], the values for the IC50 on BACE1 [3], against BACE1 [2] and at BACE1 [1] (setting [4]) were 41.8 nM, 2.2 nM and 44.4 nM, respectively.

On to `COc1cnc(C(=O)Nc2ccc3c(c2)[C@@]2(COC(N)=N2)C2(CC2)C(C)(C)O3)cn1` [Example 223, N-[(4′R)-2″-amino-2′,2′-dimethyldispiro[cyclopropane-1,3′-chromene-4′,4″-[1,3]oxazol]-6′-yl]-5-methoxypyrazine-2-carboxamide], for which the IC50 against BACE1 [2] is 3.1 nM; at BACE1 [1] (setting [4]), 99.1 nM.

At BACE1 [2], `CC1(C)Oc2ccc(NC(=O)c3cnc(C(F)F)cn3)cc2[C@@]2(COC(N)=N2)C12CC2` [Example 224, N-[(4′R)-2″-amino-2′,2′-dimethyldispiro[cyclopropane-1,3′-chromene-4′,4″-[1,3]oxazol]-6′-yl]-5-(difluoromethyl)pyrazine-2-carboxamide] had an IC50 of 0.63 nM.

Consider `CC1(C)Oc2ccc(NC(=O)c3ccc(Cl)cn3)cc2[C@]2(COC(N)=N2)C12COC2` [Example 228a, N-[(4R)-2-amino-2′,2′-dimethyldispiro[1,3-oxazole-4,4′-chromene-3′,3″-oxetan]-6′-yl]-5-chloropyridine-2-carboxamide], for which the Ki at BACE1 [1] (FRET, MCA substrate) came out at 30200 nM. Also, the IC50 at BACE1 [1] (setting [4]) was found to be 30300 nM.

As for `NC1=NC2(CO1)c1cc(NC(=O)c3ncc(Cl)cc3F)ccc1OCC21CC1` (stereo not drawn) [RP 29], at BACE1 [1] (FRET, MCA substrate), the Ki worked out at 240 nM.

Take `NC1=NC2(CO1)c1cc(-c3cncc(C4CC4)c3)ccc1OCC21CC1` (stereo not drawn) [RP 57]: the IC50 on BACE1 [1] came out at 3690 nM.

In the case of `CC#Cc1cncc(-c2ccc3c(c2)C2(COC(N)=N2)C2(COC2)C(C)(C)O3)c1` (stereo not drawn) [RP 110], the half-inhibitory concentration (IC50) against BACE1 [2] amounted to 9.2 nM; on BACE1 [1] (setting [4]), 137 nM.

Consider `CC1(C)Oc2ccc(-c3cc(O)cc(F)c3)cc2C2(COC(N)=N2)C12COC2` (stereo not drawn) [RP 169], for which the 50% inhibitory concentration (IC50) on BACE1 [1] (setting [4]) was determined as 1410 nM.

For `Cc1cc(Cl)cnc1C(=O)Nc1ccc2c(c1)C1(COC(N)=N1)C1(CC1)CO2` (stereo not drawn) [RP 194], on BACE1 [1], the Ki worked out at 313 nM and the IC50 was 349 nM.

On to `CC#Cc1cncc(-c2ccc3c(c2)C2(COC(N)=N2)C2(COC2)C(Cc2ccccc2)O3)c1` (stereo not drawn) [RP 201], for which the results for the half-maximal inhibitory concentration (IC50) against BACE1 [2] and on BACE1 [1] (setting [4]) were 8.7 nM and 113 nM, respectively. On BACE1 [1] (FRET, MCA substrate), the Ki was found to be 71.1 nM.

Regarding `CC#Cc1cncc(-c2ccc3c(c2)C2(COC(N)=N2)C2(COC2)C(Cc2ccccc2)O3)c1` (stereo not drawn) [RP 203], on BACE1 [1] (FRET, MCA substrate), the Ki was 67.6 nM. In addition, at BACE1 [1] (setting [4]), the IC50 amounted to 109 nM.

For the origin of these results see patent US8975415B2, “Chromane compounds” (CoMentis, Inc., priority 2012, dated 2015).
